# Reference: patent publication US20110263693A1, “CELASTROL, GEDUNIN, AND DERIVATIVES THEREOF AS HSP90 INHIBITORS” (DANA-FARBER CANCER INSTITUTE, INC., priority 2006, published 2011)
# Test system: LNCaP cells
substance,measurement,value
avermectin B1 [reference compound],viability screen: viability (% [ATP] normalized to R1881-treated control),53.7%
